Biological target: T1, Histone deacetylase 8 (Homo sapiens, UniProt Q9BY41)
T1 sequence (Q9BY41 whole entry): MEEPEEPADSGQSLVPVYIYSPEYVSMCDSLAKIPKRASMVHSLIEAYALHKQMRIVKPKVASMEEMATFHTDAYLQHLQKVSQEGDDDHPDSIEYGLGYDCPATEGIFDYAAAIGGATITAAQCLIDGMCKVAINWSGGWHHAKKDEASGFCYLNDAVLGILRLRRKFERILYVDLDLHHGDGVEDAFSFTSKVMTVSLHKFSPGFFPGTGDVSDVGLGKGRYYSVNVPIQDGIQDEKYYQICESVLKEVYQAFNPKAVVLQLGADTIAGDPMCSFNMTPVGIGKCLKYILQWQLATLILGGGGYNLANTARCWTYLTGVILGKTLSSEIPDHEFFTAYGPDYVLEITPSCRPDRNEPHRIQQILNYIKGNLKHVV
Test: Inhibition of HDAC8

- IC50: > 1000 nM
SMILES: O=C(CCCCCCC(=O)Nc1ccccc1)NO [VORINOSTAT]

— ChEMBL document CHEMBL1152225, “Optimization of a series of potent and selective ketone histone deacetylase inhibitors” (Bioorg Med Chem Lett, 2008)
